Amino acid sequences for entries named in this document (tags omitted).
UniProt P35222, whole entry: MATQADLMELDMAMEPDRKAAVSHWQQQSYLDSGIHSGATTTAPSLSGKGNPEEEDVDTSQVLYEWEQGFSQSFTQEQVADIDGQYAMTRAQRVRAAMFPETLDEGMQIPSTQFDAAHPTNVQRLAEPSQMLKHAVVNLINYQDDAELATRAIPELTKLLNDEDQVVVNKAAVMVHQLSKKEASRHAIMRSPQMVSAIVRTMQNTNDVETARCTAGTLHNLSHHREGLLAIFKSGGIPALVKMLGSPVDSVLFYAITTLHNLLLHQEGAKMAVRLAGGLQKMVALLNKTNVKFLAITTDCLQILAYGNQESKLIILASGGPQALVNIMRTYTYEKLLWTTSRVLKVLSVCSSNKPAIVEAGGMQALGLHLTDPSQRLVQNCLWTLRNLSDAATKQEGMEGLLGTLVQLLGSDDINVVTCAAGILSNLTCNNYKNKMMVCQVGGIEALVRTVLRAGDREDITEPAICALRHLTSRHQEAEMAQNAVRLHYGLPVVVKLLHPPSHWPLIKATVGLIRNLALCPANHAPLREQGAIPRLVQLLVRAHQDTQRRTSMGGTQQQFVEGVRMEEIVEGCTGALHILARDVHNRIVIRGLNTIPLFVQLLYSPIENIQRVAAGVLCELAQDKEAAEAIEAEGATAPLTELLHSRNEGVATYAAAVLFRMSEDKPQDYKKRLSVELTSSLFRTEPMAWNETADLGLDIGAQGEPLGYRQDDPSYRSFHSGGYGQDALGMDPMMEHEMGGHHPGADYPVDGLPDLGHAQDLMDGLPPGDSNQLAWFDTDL

In patent publication US20240360179A1, “STAPLED PEPTIDES AND METHODS THEREOF” (FOG PHARMACEUTICALS, INC., priority 2021, published 2024):

Assays:
[1] = target: T1, full-length B-Catenin (Uniprot ID P35222) (Homo sapiens, UniProt P35222); experiment: biochemical; assay type: binding; details: beta-Catenin FP IC50 (nM), competition fluorescence polarization
T1 construct: 10 nM full-length B-Catenin (Uniprot ID P35222)

[2] = target: beta-catenin/TCF4 interaction (Homo sapiens, UniProt P35222); experiment: cell-based; design: host or cells: HEK293; details: NanoBRET Abs IC50 (uM), absolute IC50

| Structure (SMILES) | IC50 [1] [nM] | IC50 [2] [µM] |
| --- | --- | --- |
| CC(=O)N1CCC[C@]12CC=CCCCC1(CCCC=CCCCOC(=O)N3CC[C@@]4(C3)NC(=O)[C@H](CCCCNC(=O)CC[C@@H](C(=O)N[C@@H](C)C(=O)O)NC(=O)[C@H](Cc3csc5ccccc35)NC(=O)[C@H](Cc3ccccc3C(=O)O)NC4=O)NC(=O)[C@H](Cc3cccc(C(=O)O)c3)NC(=O)[C@H](C)NC(=O)C(C)(C)NC(=O)[C@H](Cc3cccc(C(=O)O)c3)NC(=O)[C@H](CC(=O)O)NC1=O)NC(=O)[C@H](CC(C)(C)C)NC(=O)[C@H](CC(=O)O)NC2=O (relative stereo) [I-351, Ac-PL3-Asp-Npg-B5-Asp-3COOHF-Aib-Ala-3COOHF-Lys*3-PyrS2-2COOHF-BztA-GlnR*3-Ala-OH] | 50 to 200 | > 10 |
| CC(=O)N1CCC[C@]12CC=CCCCC1(CCCC=CCCCOC(=O)N3CC[C@@]4(C3)NC(=O)[C@H](CCCCNC(=O)CC[C@@H](C(=O)N[C@@H](C)C(=O)N[C@@H](CCC(=O)O)C(=O)N[C@@H](C)C(=O)O)NC(=O)[C@H](Cc3csc5ccccc35)NC(=O)[C@H](Cc3ccccc3C(=O)O)NC4=O)NC(=O)[C@H](Cc3cccc(C(=O)O)c3)NC(=O)[C@H](C)NC(=O)C(C)(C)NC(=O)[C@H](Cc3cccc(C(=O)O)c3)NC(=O)[C@H](CC(=O)O)NC1=O)NC(=O)[C@H](CC(C)(C)C)NC(=O)[C@H](CC(=O)O)NC2=O (relative stereo) [I-352, Ac-PL3-Asp-Npg-B5-Asp-3COOHF-Aib-Ala-3COOHF-Lys*3-PyrS2-2COOHF-BztA-GlnR*3-Ala-Glu-Ala-OH] | 50 to 200 | > 10 |
| CC(=O)N1CCC[C@]12CC=CCCCC1(CCCC=CCCCOC(=O)N3CC[C@@]4(C3)NC(=O)[C@H](CCCCNC(=O)CC[C@@H](C(=O)N[C@@H](C)C(N)=O)NC(=O)[C@H](Cc3csc5ccccc35)NC(=O)[C@H](Cc3ccsc3)NC4=O)NC(=O)[C@H](CC3CCCC3)NC(=O)[C@H](C)NC(=O)C(C)(C)NC(=O)[C@H](Cc3cccc(C(=O)O)c3)NC(=O)[C@H](CC(=O)O)NC1=O)NC(=O)[C@H](CC(C)(C)C)NC(=O)[C@H](CC(=O)O)NC2=O (relative stereo) [I-354, Ac-PL3-Asp-Npg-B5-Asp-3COOHF-Aib-Ala-CypA-Lys*3-PyrS2-3Thi-BztA-GlnR*3-Ala-NH2] | 50 to 200 | > 10 |
| CC(=O)N1CCC[C@]12CC=CCCCC1(CCCC=CCCCOC(=O)N3CC[C@@]4(C3)NC(=O)[C@H](CCCCNC(=O)CC[C@@H](C(=O)N[C@@H](C)C(N)=O)NC(=O)[C@H](Cc3csc5ccccc35)NC(=O)[C@H](Cc3ccsc3)NC4=O)NC(=O)[C@H](Cc3csc4ccccc34)NC(=O)[C@H](C)NC(=O)C(C)(C)NC(=O)[C@H](Cc3cccc(C(=O)O)c3)NC(=O)[C@H](CC(=O)O)NC1=O)NC(=O)[C@H](CC(C)(C)C)NC(=O)[C@H](CC(=O)O)NC2=O (relative stereo) [I-355, Ac-PL3-Asp-Npg-B5-Asp-3COOHF-Aib-Ala-BztA-Lys*3-PyrS2-3Thi-BztA-GlnR*3-Ala-NH2] | < 50 | 3 to 10 |
| CC(=O)N1CCC[C@]12CC=CCCCC1(CCCC=CCCCOC(=O)N3CC[C@@]4(C3)NC(=O)[C@H](CCCCNC(=O)CC[C@@H](C(=O)N[C@@H](C)C(N)=O)NC(=O)[C@H](Cc3csc5ccccc35)NC(=O)[C@H](Cc3ccsc3)NC4=O)NC(=O)[C@H](Cc3cccc4ccccc34)NC(=O)[C@H](C)NC(=O)C(C)(C)NC(=O)[C@H](Cc3cccc(C(=O)O)c3)NC(=O)[C@H](CC(=O)O)NC1=O)NC(=O)[C@H](CC(C)(C)C)NC(=O)[C@H](CC(=O)O)NC2=O (relative stereo) [I-356, Ac-PL3-Asp-Npg-B5-Asp-3COOHF-Aib-Ala-1NapA-Lys*3-PyrS2-3Thi-BztA-GlnR*3-Ala-NH2] | < 50 | > 10 |
| CC(=O)N1CCC[C@]12CC=CCCCC1(CCCC=CCCCOC(=O)N3CC[C@@]4(C3)NC(=O)[C@H](CCCCNC(=O)CC[C@@H](C(=O)N[C@@H](C)C(N)=O)NC(=O)[C@H](Cc3csc5ccccc35)NC(=O)[C@H](Cc3ccsc3)NC4=O)NC(=O)[C@H](Cc3ccc4ccccc4c3)NC(=O)[C@H](C)NC(=O)C(C)(C)NC(=O)[C@H](Cc3cccc(C(=O)O)c3)NC(=O)[C@H](CC(=O)O)NC1=O)NC(=O)[C@H](CC(C)(C)C)NC(=O)[C@H](CC(=O)O)NC2=O (relative stereo) [I-357, Ac-PL3-Asp-Npg-B5-Asp-3COOHF-Aib-Ala-2NapA-Lys*3-PyrS2-3Thi-BztA-GlnR*3-Ala-NH2] | < 50 | 3 to 10 |
| CC(=O)N1CCC[C@]12CC=CCCCC1(CCCC=CCCCOC(=O)N3CC[C@@]4(C3)NC(=O)[C@H](CCCCNC(=O)CC[C@@H](C(=O)N[C@@H](C)C(N)=O)NC(=O)[C@H](Cc3csc5ccccc35)NC(=O)[C@H](Cc3ccsc3)NC4=O)NC(=O)[C@H](Cc3ccc(O)cc3)NC(=O)[C@H](C)NC(=O)C(C)(C)NC(=O)[C@H](Cc3cccc(C(=O)O)c3)NC(=O)[C@H](CC(=O)O)NC1=O)NC(=O)[C@H](CC(C)(C)C)NC(=O)[C@H](CC(=O)O)NC2=O (relative stereo) [I-358, Ac-PL3-Asp-Npg-B5-Asp-3COOHF-Aib-Ala-Tyr-Lys*3-PyrS2-3Thi-BztA-GlnR*3-Ala-NH2] | < 50 | 1.5 to 3 |
| CC(=O)N1CCC[C@]12CC=CCCCC1(CCCC=CCCCOC(=O)N3CC[C@@]4(C3)NC(=O)[C@H](CCCCNC(=O)CC[C@@H](C(=O)N[C@@H](C)C(N)=O)NC(=O)[C@H](Cc3csc5ccccc35)NC(=O)[C@H](Cc3ccsc3)NC4=O)NC(=O)[C@H](Cc3c[nH]c4ccccc34)NC(=O)[C@H](C)NC(=O)C(C)(C)NC(=O)[C@H](Cc3cccc(C(=O)O)c3)NC(=O)[C@H](CC(=O)O)NC1=O)NC(=O)[C@H](CC(C)(C)C)NC(=O)[C@H](CC(=O)O)NC2=O (relative stereo) [I-359, Ac-PL3-Asp-Npg-B5-Asp-3COOHF-Aib-Ala-Trp-Lys*3-PyrS2-3Thi-BztA-GlnR*3-Ala-NH2] | < 50 | 3 to 10 |
| CC(=O)N1CCC[C@]12CC=CCCCC1(CCCC=CCCCOC(=O)N3CC[C@@]4(C3)NC(=O)[C@H](CCCCNC(=O)CC[C@@H](C(=O)N[C@@H](C)C(N)=O)NC(=O)[C@H](Cc3csc5ccccc35)NC(=O)[C@H](Cc3ccsc3)NC4=O)NC(=O)[C@H](CO)NC(=O)[C@H](C)NC(=O)C(C)(C)NC(=O)[C@H](Cc3cccc(C(=O)O)c3)NC(=O)[C@H](CC(=O)O)NC1=O)NC(=O)[C@H](CC(C)(C)C)NC(=O)[C@H](CC(=O)O)NC2=O (relative stereo) [I-363, Ac-PL3-Asp-Npg-B5-Asp-3COOHF-Aib-Ala-Ser-Lys*3-PyrS2-3Thi-BztA-GlnR*3-Ala-NH2] | 50 to 200 | > 10 |
| CC(=O)N1CCC[C@]12CC=CCCCC1(CCCC=CCCCOC(=O)N3CC[C@@]4(C3)NC(=O)[C@H](CCCCNC(=O)CC[C@@H](C(=O)N[C@@H](C)C(N)=O)NC(=O)[C@H](Cc3csc5ccccc35)NC(=O)[C@H](Cc3ccsc3)NC4=O)NC(=O)[C@H](Cc3ccsc3)NC(=O)[C@H](C)NC(=O)C(C)(C)NC(=O)[C@H](Cc3cccc(C(=O)O)c3)NC(=O)[C@H](CC(=O)O)NC1=O)NC(=O)[C@H](CC(C)(C)C)NC(=O)[C@H](CC(=O)O)NC2=O (relative stereo) [I-364, Ac-PL3-Asp-Npg-B5-Asp-3COOHF-Aib-Ala-3Thi-Lys*3-PyrS2-3Thi-BztA-GlnR*3-Ala-NH2] | < 50 | < 1.5 |
| CC(=O)N1CCC[C@]12CC=CCCCC1(CCCC=CCCCOC(=O)N3CC[C@@]4(C3)NC(=O)[C@H](CCCCNC(=O)CC[C@@H](C(=O)N[C@@H](C)C(N)=O)NC(=O)[C@H](Cc3csc5ccccc35)NC(=O)[C@H](Cc3ccsc3)NC4=O)NC(=O)[C@H](Cc3cccs3)NC(=O)[C@H](C)NC(=O)C(C)(C)NC(=O)[C@H](Cc3cccc(C(=O)O)c3)NC(=O)[C@H](CC(=O)O)NC1=O)NC(=O)[C@H](CC(C)(C)C)NC(=O)[C@H](CC(=O)O)NC2=O (relative stereo) [I-365, Ac-PL3-Asp-Npg-B5-Asp-3COOHF-Aib-Ala-2Thi-Lys*3-PyrS2-3Thi-BztA-GlnR*3-Ala-NH2] | < 50 | 1.5 to 3 |
| CC(=O)N1CCC[C@]12CC=CCCCC1(CCCC=CCCCOC(=O)N3CC[C@@]4(C3)NC(=O)[C@H](CCCCNC(=O)CC[C@@H](C(=O)N[C@@H](C)C(N)=O)NC(=O)[C@H](Cc3csc5ccccc35)NC(=O)[C@H](Cc3ccsc3)NC4=O)NC(=O)[C@H](Cc3cccc(C(F)(F)F)c3)NC(=O)[C@H](C)NC(=O)C(C)(C)NC(=O)[C@H](Cc3cccc(C(=O)O)c3)NC(=O)[C@H](CC(=O)O)NC1=O)NC(=O)[C@H](CC(C)(C)C)NC(=O)[C@H](CC(=O)O)NC2=O (relative stereo) [I-369, Ac-PL3-Asp-Npg-B5-Asp-3COOHF-Aib-Ala-3F3MeF-Lys*3-PyrS2-3Thi-BztA-GlnR*3-Ala-NH2] | < 50 | 3 to 10 |
| CC(=O)N1CCC[C@]12CC=CCCCC1(CCCC=CCCCOC(=O)N3CC[C@@]4(C3)NC(=O)[C@H](CCCCNC(=O)CC[C@@H](C(=O)N[C@@H](C)C(N)=O)NC(=O)[C@H](Cc3csc5ccccc35)NC(=O)[C@H](Cc3ccsc3)NC4=O)NC(=O)[C@H](Cc3ccccc3)NC(=O)[C@H](C)NC(=O)[C@H](CCC(=O)N3CCOCC3)NC(=O)[C@H](Cc3cccc(C(=O)O)c3)NC(=O)[C@H](CC(=O)O)NC1=O)NC(=O)[C@H](CC(C)(C)C)NC(=O)[C@H](CC(=O)O)NC2=O (relative stereo) [I-378, Ac-PL3-Asp-Npg-B5-Asp-3COOHF-MorphGln-Ala-Phe-Lys*3-PyrS2-3Thi-BztA-GlnR*3-Ala-NH2] | < 50 | 1.5 to 3 |
| CC(=O)N1CCC[C@]12CC=CCCCC1(CCCC=CCCCOC(=O)N3CC[C@@]4(C3)NC(=O)[C@H](CCCCNC(=O)CC[C@@H](C(=O)N[C@@H](C)C(N)=O)NC(=O)[C@H](Cc3csc5ccccc35)NC(=O)[C@H](Cc3ccsc3)NC4=O)NC(=O)[C@H](Cc3ccccc3)NC(=O)[C@H](C)NC(=O)[C@H](CCC(=O)N(C)C)NC(=O)[C@H](Cc3cccc(C(=O)O)c3)NC(=O)[C@H](CC(=O)O)NC1=O)NC(=O)[C@H](CC(C)(C)C)NC(=O)[C@H](CC(=O)O)NC2=O (relative stereo) [I-379, Ac-PL3-Asp-Npg-B5-Asp-3COOHF-Me2Gln-Ala-Phe-Lys*3-PyrS2-3Thi-BztA-GlnR*3-Ala-NH2] | < 50 | 1.5 to 3 |
